Yeast mating assay 1: variants of the scFv Ab-14

From the AlphaSeq antibody data of Engelhart et al. 2022 (doi:10.1038/s41597-022-01779-4), copy in the FLAb collection.

All variants were tested on one target, the spike HR2 peptide PDVDLGDISGINAS (SARS-CoV-2).

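The starting antibody came from a phage panning campaign against this peptide. The library (AAYL50) carries one to three amino acid substitutions per variant, with no insertions or deletions. The scFvs were displayed on barcoded MATa yeast, the peptide on MATalpha yeast. The frequency of each diploid, read from paired DNA barcodes, reflects how well the two displayed proteins bind. Scores were corrected for input abundance and mapped to Kd with protein pairs of known affinity run in the same pool. Mating was done three times.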

Parent scFv Ab-14: VH joined to VL by a 15-residue (Gly4Ser)3 linker. Changes lie in the light chain CDRs alone.
VH: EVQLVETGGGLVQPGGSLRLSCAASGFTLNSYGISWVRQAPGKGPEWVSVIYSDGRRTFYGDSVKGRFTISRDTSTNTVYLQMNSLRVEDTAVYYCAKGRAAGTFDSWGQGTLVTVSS
VL: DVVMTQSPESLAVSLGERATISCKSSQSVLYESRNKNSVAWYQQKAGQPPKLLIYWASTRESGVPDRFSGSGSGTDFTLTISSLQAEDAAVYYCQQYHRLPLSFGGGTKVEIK

Substitutions are numbered in sequence along the VL above, starting at 1 (not Kabat).
Numbers give log10(Kd / nM), so 0 is 1 nM and 3 is 1 µM. Smaller is tighter.
A mean of the replicates is given; it leaves out those without a signal.
"ND" means that the variant was in the library but no mating with the target was seen in that replicate; the authors take this as a sign of poor binding, and no number exists.
For reference, the parent read 0.65 as the reference entry and 1.68 as a member of this library.

changes | log10 Kd (nM) by replicate | mean, log10 nM | control signals
T59H | 3.88 / 3.98 / ND | 3.93 | 5/9 (3.92)
S28G V29M | 1.59 / 1.53 / 1.59 | 1.57 | 2/9 (4.23)
K24E Q27F V29N | 3.17 / 2.35 / 2.55 | 2.69 | 2/9 (3.42)
S33C K36D S103M | 2.57 / 2.71 / 2.70 | 2.66 | 0/9
W56M L100Q | 2.55 / 3.48 / ND | 3.01 | 0/9
Q27W R60Q S103P | ND / ND / ND | ND | 0/9
S25T W56V | 2.76 / 2.54 / 3.01 | 2.77 | 5/9 (4.65)
S26M S33E T59A | 3.11 / 2.64 / 2.84 | 2.86 | 6/9 (4.56)
L30G S38C S103F | 3.80 / 5.25 / 4.26 | 4.44 | 3/9 (3.62)
S58W Y97I L100G | ND / ND / ND | ND | 3/9 (4.11)
N35M E61C | 1.69 / 1.83 / 2.21 | 1.91 | 0/9
S25C E32H N35R | 1.83 / 2.32 / 2.14 | 2.10 | 4/9 (3.44)
V39Y Q95A H98Y | ND / ND / ND | ND | 0/9
S25H E32W | ND / ND / ND | ND | 0/9
K24E W56T A57V | 2.82 / 2.55 / 3.93 | 3.10 | 1/9 (3.06)
R34C S58D S62P | 0.98 / 1.03 / 1.08 | 1.03 | 2/9 (5.39)
S25C S58H S103L | 1.15 / 1.21 / 1.28 | 1.21 | 3/9 (5.12)
V29E R34A N37G | 2.27 / 2.29 / 2.66 | 2.41 | 0/9
V39M A40H T59M | ND / ND / ND | ND | 0/9
S28G L30E R99Y | 0.90 / 1.02 / 1.03 | 0.99 | 2/9 (3.87)
S26K K36M S58T | 0.74 / 0.90 / 0.83 | 0.82 | 0/9
S25T V29C N35Y | ND / ND / ND | ND | 0/9
L30E T59H Y97M | 4.64 / 4.79 / ND | 4.72 | 2/9 (3.57)
S25K S33K R34I | 0.71 / 0.74 / 0.58 | 0.67 | 1/9 (3.79)
R34F S62Q R99A | ND / ND / ND | ND | 0/9
N35E V39C A57W | ND / ND / ND | ND | 2/9 (3.69)
Q27K L30I P101L | ND / 4.43 / ND | 4.43 | 2/9 (3.43)
N37F R99I L102W | ND / 4.75 / ND | 4.75 | 2/9 (4.86)
S28Q V39W W56I | ND / ND / ND | ND | 0/9
S28M K36V S58C | ND / 3.07 / ND | 3.07 | 1/9 (5.01)
A40R S62Y Q96T | ND / ND / ND | ND | 0/9
S38W Q95H | ND / ND / ND | ND | 1/9 (3.33)
Y31M V39R W56R | 5.38 / ND / ND | 5.38 | 0/9
S28D R60H H98W | 3.93 / 3.29 / 3.90 | 3.70 | 7/9 (4.68)
S26P Q27S P101M | 4.29 / ND / ND | 4.29 | 0/9
S28R S33C R34Q | 3.61 / 4.10 / 3.63 | 3.78 | 2/9 (2.85)
V29F N35S Q96R | 1.33 / 1.86 / 1.80 | 1.67 | 2/9 (4.61)
Q27Y V29Y S62I | 0.82 / 1.10 / 0.96 | 0.96 | 0/9
S28T T59M Q95I | ND / ND / 3.06 | 3.06 | 0/9
A40M Q96A L102Y | 4.71 / 3.25 / ND | 3.98 | 1/9 (4.06)
V29G N37L R60K | ND / ND / ND | ND | 1/9 (3.38)

The opening 5 entries, copied out:

| changes | log10 Kd (nM) by replicate | mean, log10 nM | control signals |
|---|---|---|---|
| T59H | 3.88 / 3.98 / ND | 3.93 | 5/9 (3.92) |
| S28G V29M | 1.59 / 1.53 / 1.59 | 1.57 | 2/9 (4.23) |
| K24E Q27F V29N | 3.17 / 2.35 / 2.55 | 2.69 | 2/9 (3.42) |
| S33C K36D S103M | 2.57 / 2.71 / 2.70 | 2.66 | 0/9 |
| W56M L100Q | 2.55 / 3.48 / ND | 3.01 | 0/9 |

Nonspecific signal, from three strains lacking the peptide, appeared in 18% of pairings of library AAYL50, centred on 4.19 (5% of these signals below 2.99); values are not corrected for it. For each scFv, signals with the empty controls are counted beside the result, with their mean in brackets.